A short description of this test: Carboxy-fluorescein efflux from PE/PG liposomes. As to conditions: 2.5 μM, positive control, within a few minutes of addition. In kind it is biochemical. The method, then: Liptin 3e causes membrane leakage when it binds to PG in a membrane, as evidenced by the efflux of fluorescent carboxy-fluorescein from model lipid vesicles of 80% PE/20% PG (the approximate lipid content models E. coli's plasma membrane), shown in FIG. 19A. […] Not shown is the effect of the bee AMP melittin, which forms pores in membranes at 2.5 μM concentrations. Upon addition of melittin within a few minutes of addition the efflux is 100%.
Liptins 3f-h also cause membrane leakage when they bind to PG in a membrane, as evidenced by the efflux of fluorescent carboxy-fluorescein from model lipid vesicles of 80% PE/20% PG (the lipid content models E. coli's plasma membrane), shown in FIG. 19B. The circle bottom line data set is the control without liptin. […] Y-axis: % Efflux; X-axis: Time in minutes.
This greater efflux activity may well translate to lower MICs of these two compounds relative to liptin 3e, and may well change the liptin activity from bacteriostatic to bactericidal. […]

In the case of `CC[C@H](C)[C@H](NC(=O)CN)C(=O)NCC(=O)N[C@@H](C)C(=O)N[C@H](C(=O)N[C@@H](CC(C)C)C(=O)N[C@@H](CCCCN)C(=O)N[C@H](C(=O)N[C@@H](CC(C)C)C(=O)N[C@H](C(=O)N[C@H](C(=O)NCC(=O)N[C@@H](CC(C)C)C(=O)N1CCC[C@H]1C(=O)N[C@@H](C)C(=O)N[C@@H](CC(C)C)C(=O)N[C@H](C(=O)N[C@@H](CO)C(=O)N[C@@H](Cc1c[nH]c2ccccc12)C(=O)N[C@H](C(=O)N[C@@H](CCCCN)C(=O)N[C@@H](CCCNC(=N)N)C(=O)N[C@@H](CCCCN)C(=O)N[C@@H](CCCNC(=N)N)C(=O)N[C@@H](CCC(N)=O)C(=O)N[C@@H](CCC(N)=O)C(N)=O)[C@@H](C)CC)[C@@H](C)CC)[C@@H](C)O)[C@@H](C)O)C(C)C)C(C)C` [melittin, reference compound], the “efflux (loss of dye)” value was 100%.

Values taken from patent US10668048B2, “Compounds for inhibiting bacterial growth via phosphatidylglycerol binding” (Wichita State University, priority 2016, dated 2020).
